Among the targets are hAChE N283D (Homo sapiens, UniProt P22303, N314D); hAChE Y72A (Homo sapiens, UniProt P22303, Y103A); hAChE N283A (Homo sapiens, UniProt P22303, N314A); hAChE D74N (Homo sapiens, UniProt P22303, D105N); hAChE D74A (Homo sapiens, UniProt P22303, D105A); hAChE Y341A (Homo sapiens, UniProt P22303, Y372A).
In another test the target is T1, mAChE D283N (Mus musculus, UniProt P21836, D314N).
T1 sequence (P21836 32-614 D314N): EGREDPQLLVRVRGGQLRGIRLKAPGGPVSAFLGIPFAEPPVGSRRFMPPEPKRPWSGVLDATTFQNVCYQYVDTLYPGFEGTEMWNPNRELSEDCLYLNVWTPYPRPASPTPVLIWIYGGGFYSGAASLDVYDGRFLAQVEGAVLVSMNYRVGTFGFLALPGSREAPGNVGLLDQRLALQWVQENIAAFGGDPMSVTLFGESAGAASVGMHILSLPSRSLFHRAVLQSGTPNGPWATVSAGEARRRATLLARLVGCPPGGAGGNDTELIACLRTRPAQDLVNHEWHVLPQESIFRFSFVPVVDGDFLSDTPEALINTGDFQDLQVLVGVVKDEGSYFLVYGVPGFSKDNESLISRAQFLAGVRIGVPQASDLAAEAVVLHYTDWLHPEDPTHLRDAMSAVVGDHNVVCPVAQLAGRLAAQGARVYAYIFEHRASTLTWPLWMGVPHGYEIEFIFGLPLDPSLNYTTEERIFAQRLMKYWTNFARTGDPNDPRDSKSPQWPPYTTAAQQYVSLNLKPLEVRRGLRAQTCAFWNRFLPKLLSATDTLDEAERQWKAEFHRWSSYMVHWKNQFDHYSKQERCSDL

Chains of the proteins cited; added tags and fusions are not shown. Residues count along the entry.
UniProt P22303, 32-614 N314D: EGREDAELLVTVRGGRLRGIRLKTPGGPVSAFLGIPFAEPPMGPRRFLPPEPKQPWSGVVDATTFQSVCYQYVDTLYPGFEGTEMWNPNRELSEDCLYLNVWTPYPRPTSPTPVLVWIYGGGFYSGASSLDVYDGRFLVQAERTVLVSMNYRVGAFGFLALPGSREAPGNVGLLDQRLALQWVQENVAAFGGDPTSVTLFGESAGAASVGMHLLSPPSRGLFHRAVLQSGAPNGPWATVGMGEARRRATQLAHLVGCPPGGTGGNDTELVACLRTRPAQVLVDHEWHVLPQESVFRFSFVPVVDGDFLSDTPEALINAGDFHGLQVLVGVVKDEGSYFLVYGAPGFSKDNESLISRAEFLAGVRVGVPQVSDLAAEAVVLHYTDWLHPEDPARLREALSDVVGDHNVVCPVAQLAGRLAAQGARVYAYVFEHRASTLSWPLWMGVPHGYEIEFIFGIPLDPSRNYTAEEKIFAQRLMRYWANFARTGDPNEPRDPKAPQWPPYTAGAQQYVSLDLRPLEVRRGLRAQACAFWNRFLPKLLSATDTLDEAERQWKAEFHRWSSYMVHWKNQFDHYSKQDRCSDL
UniProt P22303, 32-614 Y103A: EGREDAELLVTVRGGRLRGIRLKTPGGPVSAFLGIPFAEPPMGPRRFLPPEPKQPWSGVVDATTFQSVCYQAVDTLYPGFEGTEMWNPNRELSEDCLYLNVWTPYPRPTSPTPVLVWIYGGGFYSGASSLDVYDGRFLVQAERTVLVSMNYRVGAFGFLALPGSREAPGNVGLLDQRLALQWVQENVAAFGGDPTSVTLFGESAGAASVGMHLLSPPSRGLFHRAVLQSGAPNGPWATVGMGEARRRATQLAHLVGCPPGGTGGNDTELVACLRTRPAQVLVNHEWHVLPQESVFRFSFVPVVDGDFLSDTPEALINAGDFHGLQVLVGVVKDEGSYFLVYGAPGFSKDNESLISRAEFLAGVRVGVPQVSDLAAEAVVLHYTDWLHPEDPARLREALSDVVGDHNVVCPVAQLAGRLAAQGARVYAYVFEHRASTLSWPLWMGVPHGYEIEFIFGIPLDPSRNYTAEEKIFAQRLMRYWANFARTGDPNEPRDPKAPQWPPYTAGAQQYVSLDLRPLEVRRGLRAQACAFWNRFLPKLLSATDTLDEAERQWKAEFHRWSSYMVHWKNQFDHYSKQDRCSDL
UniProt P22303, 32-614 N314A: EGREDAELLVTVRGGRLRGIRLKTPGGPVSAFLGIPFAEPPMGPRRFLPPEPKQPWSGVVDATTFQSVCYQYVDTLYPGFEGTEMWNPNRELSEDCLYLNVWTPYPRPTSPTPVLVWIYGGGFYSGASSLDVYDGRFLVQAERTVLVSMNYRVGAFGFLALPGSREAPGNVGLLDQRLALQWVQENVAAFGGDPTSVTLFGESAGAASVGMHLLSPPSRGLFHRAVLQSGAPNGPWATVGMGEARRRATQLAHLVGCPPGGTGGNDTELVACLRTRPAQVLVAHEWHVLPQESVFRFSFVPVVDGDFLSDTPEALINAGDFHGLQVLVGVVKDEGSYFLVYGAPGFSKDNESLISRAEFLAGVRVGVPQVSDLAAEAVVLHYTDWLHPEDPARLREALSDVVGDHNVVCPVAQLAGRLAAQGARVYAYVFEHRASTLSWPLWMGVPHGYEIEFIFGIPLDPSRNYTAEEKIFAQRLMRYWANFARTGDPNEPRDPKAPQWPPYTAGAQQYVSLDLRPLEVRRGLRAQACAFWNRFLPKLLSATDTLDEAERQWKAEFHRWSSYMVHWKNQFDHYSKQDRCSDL
UniProt P22303, 32-614 D105N: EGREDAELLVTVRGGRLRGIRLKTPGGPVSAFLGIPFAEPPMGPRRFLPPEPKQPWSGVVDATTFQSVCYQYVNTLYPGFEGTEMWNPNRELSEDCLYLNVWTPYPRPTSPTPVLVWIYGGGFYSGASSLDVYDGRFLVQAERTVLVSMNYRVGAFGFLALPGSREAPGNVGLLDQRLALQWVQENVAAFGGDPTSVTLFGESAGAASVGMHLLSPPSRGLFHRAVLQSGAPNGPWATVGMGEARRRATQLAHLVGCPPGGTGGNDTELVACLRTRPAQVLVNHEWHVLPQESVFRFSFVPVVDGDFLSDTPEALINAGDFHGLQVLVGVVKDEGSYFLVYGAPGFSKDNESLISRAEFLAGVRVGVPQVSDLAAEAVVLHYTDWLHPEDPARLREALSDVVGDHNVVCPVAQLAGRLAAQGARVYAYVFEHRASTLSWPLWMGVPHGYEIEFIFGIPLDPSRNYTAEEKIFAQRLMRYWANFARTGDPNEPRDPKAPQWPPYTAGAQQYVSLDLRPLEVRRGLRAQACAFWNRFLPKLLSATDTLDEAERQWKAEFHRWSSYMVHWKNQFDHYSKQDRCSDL
UniProt P22303, 32-614 D105A: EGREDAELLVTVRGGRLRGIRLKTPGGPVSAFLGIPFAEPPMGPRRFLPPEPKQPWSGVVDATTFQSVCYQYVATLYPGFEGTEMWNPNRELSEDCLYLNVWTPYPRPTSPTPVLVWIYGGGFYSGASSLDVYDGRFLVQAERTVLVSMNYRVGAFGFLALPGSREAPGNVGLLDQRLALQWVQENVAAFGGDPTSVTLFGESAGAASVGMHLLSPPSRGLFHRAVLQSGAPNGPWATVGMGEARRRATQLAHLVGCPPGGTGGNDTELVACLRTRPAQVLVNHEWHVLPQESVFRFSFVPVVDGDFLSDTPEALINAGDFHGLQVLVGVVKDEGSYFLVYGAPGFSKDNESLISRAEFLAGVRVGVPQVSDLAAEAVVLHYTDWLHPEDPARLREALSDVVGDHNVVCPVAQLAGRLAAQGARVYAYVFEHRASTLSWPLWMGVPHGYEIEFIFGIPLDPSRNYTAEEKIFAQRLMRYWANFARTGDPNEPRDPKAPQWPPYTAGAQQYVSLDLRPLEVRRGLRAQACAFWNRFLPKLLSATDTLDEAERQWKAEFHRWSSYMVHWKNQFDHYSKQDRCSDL
UniProt P22303, 32-614 Y372A: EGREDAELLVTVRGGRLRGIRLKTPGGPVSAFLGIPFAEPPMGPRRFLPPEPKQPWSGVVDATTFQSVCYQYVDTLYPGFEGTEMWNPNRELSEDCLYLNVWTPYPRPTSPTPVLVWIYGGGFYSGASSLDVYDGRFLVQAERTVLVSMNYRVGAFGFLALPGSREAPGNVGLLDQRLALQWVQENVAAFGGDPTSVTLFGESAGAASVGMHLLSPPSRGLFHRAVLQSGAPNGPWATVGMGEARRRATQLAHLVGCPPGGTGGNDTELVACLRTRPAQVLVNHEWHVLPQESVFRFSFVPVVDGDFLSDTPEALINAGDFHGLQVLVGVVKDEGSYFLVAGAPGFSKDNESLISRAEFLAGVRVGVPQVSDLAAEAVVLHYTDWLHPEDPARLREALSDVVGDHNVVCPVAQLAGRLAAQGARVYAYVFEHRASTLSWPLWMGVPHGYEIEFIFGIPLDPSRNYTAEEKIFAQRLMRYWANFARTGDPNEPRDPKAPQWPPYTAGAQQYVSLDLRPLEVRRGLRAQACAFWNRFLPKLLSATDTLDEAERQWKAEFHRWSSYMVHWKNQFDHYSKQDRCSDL

Consider `CN(C)c1ccc([C+](c2ccc(N(C)C)cc2)c2ccc(N(C)C)cc2)cc1.[Cl-]` [CV, tris(4-(dimethylamino)phenyl)methylium chloride], for which the “Hill Coefficient” value at hAChE N283D is listed as −1.9 (−2.01–−1.75); at hAChE Y72A, −1.8 (−1.96–−1.73); on hAChE N283A, −1.8 (−1.86–−1.68); on hAChE D74N it was −2.1 (−2.44–−1.86); on hAChE D74A, −1.7 (−1.83–−1.49); at mAChE D283N, −1.8 (−1.92–−1.64). The “Hill Coefficient” value at hAChE Y341A is on record as −2.0 (−2.26–−1.82).

Source of the values: publication PMC6151500 (Molecules : A Journal of Synthetic Chemistry and Natural …, 2017).
